Test results published in PubChem BioAssay AID434979 (Johns Hopkins Ion Channel Center, 2010).
The list shows a part of the results, in another mix than the full data. Activity calls are given as the source filed them.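 Rule for the calls: active = signal rise over 3 SD above mean of control wells given weak agonist, in both repeats and first screen; inactive = the rest.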

tested on: TRPC4 (mouse), co-expressed with 5HT1a in HEK293; assay: enhancement of serotonin-evoked TRPC4 response – cell-based, second counter screen, HEK293 TRPC4/5HT1a, Fluo-4, counter-screen for TRPC4 potentiator project, confirmation (AID 434979); conditions: Fluo-4 calcium flux, at 10 µM, serotonin added at its EC20 dose; hits give high values

Row | Compound | potentiation
1 | CN(C)CCOC(=O)C(O)(c1ccccc1)C1CCCC1 (configuration not stated) | inactive
2 | CCN(CC)CCCOC(=O)C(O)(c1ccccc1)c1ccccc1 | active: 20.3%
